Results taken from ChEMBL document CHEMBL5376013, “Design, synthesis and biological evaluation of novel morpholinopyrimidine-5-carbonitrile derivatives as dual PI3K/mTOR inhibitors” (RSC Med Chem, 2024).

Protein sequences, listed by entry. Tags and fused reporters are not part of them. Lines headed by an entry give the natural chain unless they say otherwise; changes in a name come on top.
UniProt P42338: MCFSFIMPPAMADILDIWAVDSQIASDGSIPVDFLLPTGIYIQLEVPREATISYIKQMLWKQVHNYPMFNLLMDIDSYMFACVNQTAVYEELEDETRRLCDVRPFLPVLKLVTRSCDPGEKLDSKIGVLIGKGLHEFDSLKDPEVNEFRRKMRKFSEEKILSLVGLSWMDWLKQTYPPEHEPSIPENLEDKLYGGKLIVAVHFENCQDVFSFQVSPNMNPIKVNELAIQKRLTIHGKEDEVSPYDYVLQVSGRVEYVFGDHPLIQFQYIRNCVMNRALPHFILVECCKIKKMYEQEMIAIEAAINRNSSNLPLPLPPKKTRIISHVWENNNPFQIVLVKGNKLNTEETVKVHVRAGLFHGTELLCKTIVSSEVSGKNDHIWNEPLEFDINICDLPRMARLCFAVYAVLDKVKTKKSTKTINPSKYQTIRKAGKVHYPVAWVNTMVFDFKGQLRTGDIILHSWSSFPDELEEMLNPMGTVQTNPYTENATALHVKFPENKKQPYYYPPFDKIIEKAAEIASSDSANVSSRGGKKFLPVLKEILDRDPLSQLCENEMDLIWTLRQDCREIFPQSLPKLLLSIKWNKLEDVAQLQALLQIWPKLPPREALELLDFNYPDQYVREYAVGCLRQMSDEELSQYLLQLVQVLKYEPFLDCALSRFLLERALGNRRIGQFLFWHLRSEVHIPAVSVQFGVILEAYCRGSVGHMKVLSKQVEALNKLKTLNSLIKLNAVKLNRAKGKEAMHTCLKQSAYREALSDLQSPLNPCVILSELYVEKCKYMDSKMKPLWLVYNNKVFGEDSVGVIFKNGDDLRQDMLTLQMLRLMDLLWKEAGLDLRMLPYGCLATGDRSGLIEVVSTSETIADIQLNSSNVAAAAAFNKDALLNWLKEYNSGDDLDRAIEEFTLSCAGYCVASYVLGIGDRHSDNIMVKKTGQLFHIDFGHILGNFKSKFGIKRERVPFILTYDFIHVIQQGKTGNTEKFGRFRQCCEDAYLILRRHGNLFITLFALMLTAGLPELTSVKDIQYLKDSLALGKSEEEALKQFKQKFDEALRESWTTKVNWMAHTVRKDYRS

Biological target: Phosphatidylinositol 4,5-bisphosphate 3-kinase catalytic subunit beta isoform (Homo sapiens, UniProt P42338)
Experiment: Inhibition of PI3Kbeta (unknown origin)

O=c1cc(N2CCOCC2)oc2c(-c3ccccc3)cccc12 [LY-294002]
IC50: 5.43 µM
